This is an account of results in patent US7713994B2 (Wyeth LLC, priority 2005, dated 2010).

Amino acid sequences for entries named in this document (tags omitted).
UniProt P11802, whole entry: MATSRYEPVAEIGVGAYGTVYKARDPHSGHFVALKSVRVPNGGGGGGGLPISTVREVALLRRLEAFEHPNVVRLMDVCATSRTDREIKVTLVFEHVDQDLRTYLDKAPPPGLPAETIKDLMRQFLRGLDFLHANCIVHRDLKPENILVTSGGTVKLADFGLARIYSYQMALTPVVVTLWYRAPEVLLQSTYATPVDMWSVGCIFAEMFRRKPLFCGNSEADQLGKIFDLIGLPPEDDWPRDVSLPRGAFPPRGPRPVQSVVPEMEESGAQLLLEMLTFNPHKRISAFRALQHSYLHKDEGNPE
UniProt P06493, whole entry: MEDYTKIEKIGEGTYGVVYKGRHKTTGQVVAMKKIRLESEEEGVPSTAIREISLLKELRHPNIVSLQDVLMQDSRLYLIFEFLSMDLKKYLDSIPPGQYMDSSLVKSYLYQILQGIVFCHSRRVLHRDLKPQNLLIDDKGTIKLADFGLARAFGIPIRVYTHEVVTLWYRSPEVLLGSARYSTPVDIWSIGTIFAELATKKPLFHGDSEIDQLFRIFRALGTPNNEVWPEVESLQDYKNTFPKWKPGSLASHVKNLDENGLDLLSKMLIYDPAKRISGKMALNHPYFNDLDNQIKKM
UniProt P24385, whole entry partner: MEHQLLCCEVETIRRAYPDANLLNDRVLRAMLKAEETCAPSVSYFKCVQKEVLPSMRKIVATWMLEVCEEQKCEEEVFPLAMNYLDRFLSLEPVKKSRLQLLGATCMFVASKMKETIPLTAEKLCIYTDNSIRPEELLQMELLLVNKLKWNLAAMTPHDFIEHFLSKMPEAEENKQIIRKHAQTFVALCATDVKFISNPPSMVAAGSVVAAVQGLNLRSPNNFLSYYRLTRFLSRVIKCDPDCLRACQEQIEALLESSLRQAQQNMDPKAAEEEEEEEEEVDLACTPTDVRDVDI
UniProt P14635, whole entry partner: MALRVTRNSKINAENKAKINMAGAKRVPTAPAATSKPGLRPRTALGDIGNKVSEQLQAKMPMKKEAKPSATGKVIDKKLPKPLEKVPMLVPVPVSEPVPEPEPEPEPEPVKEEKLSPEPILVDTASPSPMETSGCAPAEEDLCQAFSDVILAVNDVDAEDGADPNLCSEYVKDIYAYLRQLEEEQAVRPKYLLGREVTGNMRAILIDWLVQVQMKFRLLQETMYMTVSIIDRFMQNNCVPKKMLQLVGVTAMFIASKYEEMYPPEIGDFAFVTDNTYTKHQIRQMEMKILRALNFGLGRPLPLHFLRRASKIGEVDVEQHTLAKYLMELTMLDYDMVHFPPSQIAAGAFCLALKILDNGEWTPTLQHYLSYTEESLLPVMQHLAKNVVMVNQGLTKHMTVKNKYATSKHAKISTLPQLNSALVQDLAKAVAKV

Read-outs that look alike come from different tables or passages of the source.

One assay has as its system MCF-7. In words: Cytotoxicity assay (SRB), MCF-7. Format: cell-based.
The test system of a further assay is LoVo. In words: Cytotoxicity assay (SRB), LoVo.
A further assay relates to BT474. The assay is described as follows: Cytotoxicity assay (SRB), BT474. The settings on record: read-out: In Vitro Cellular Activity IC50 BT474, BT474 cells, 6 days.
The subject of a further assay is HCT-116. In words: Cytotoxicity assay (SRB), HCT-116. The format is cell-based.
The target in another assay is cyclin D1/cdk 4 enzyme (Homo sapiens, UniProt P11802). The assay is described as follows: CDK4 ELISA kinase assay (phospho-Rb ser 795 detection). The format is biochemical.
For a further assay, the target named is cyclin B/CDK1 enzyme (Homo sapiens, UniProt P06493). The assay is described as follows: CDK1 ELISA kinase assay (phospho-Rb ser 795 detection). The format is biochemical.
The next assay addresses cyclin E/CDK2 enzyme (Homo sapiens, UniProt P24941). In words: CDK2 ELISA kinase assay (phospho-Rb ser 795 detection). Format: biochemical.
Setting [1] is: read-out: In Vitro Cellular Activity IC50 MCF-7, MCF-7 cells, three days.
Where [2] appears, read: read-out: In Vitro Cellular Activity IC50 LOVO, LoVo cells, three days.
The mark [3] stands for this setting: read-out: In Vitro Cellular Activity IC50 HCT116, HCT116 cells, three days.

As for `CC(=O)Nc1ccc2c(c1)/C(=C/Nc1ccc(N3CCN(C)CC3)cc1)C(=O)NC2=O`, the IC50 in the assay on MCF-7 (setting [1]) was determined as 11 µM; in the assay on LoVo (setting [2]), 13 µM; in the assay on BT474 it was 17 µM; with HCT-116 (setting [3]), 6.6 µM.

Take `Cc1cc(N/C=C2\C(=O)NC(=O)c3ccc(Br)cc32)cnc1C1C[C@@H](C)N[C@@H](C)C1` (stereo partly drawn): the IC50 with MCF-7 (setting [1]) is 5.6 µM; on cyclin D1/cdk 4 enzyme (read-out: CDK4 IC50, In Vitro Enzyme Assays, 200 μM ATP) it was 3.1 µM; in the assay with LoVo (setting [2]) it was 6.5 µM; at cyclin B/CDK1 enzyme (read-out: CDK1 IC50, In Vitro Enzyme Assays), more than 50 µM; on cyclin E/CDK2 enzyme (read-out: CDK2 IC50, In Vitro Enzyme Assays), more than 50 µM; with BT474 it was 5.6 µM. In addition, the IC50 with HCT-116 (setting [3]) is 3.5 µM.

Turning to `C[C@@H]1CN(c2ccc(N/C=C3\C(=O)NC(=O)c4ccc(-c5ccc(CO)o5)cc43)cn2)C[C@H](C)N1`, the IC50 with MCF-7 (read-out: In Vitro Cellular Activity IC50 MCF-7, MCF-7 cells, 3 days) was 8.91 µM; on cyclin D1/cdk 4 enzyme (read-out: CDK4 IC50, In Vitro Enzyme Assay, cyclin D1/cdk 4) it was 0.44 µM; in the assay with LoVo (read-out: In Vitro Cellular Activity IC50 LOVO, LoVo cells, 3 days) it was 9.19 µM; at cyclin B/CDK1 enzyme (read-out: CDK1 IC50, In Vitro Enzyme Assay, cyclin B/CDK1), more than 50 µM; on cyclin E/CDK2 enzyme (read-out: CDK2 IC50, In Vitro Enzyme Assay, cyclin E/CDK2) it was more than 50 µM; with BT474 it was 11.1 µM. Also, the IC50 in the assay on HCT-116 (read-out: In Vitro Cellular Activity IC50 HCT116, HCT116 cells, 3 days) was found to be 5.72 µM.
